Columns and labels:
circular dichroism = settings: 5 mM sodium phosphate; pH 7.0; ns °C; 0.5 or 2 mg/mL
eIF4E = target: T1, eIF4E (Homo sapiens, UniProt P06730); assay: eIF4E affinity (SPR/FP, method not named); format: binding
T1 construct: made in house
Description: Apparent Kd values were determined for a variety of molecules via competitive anisotropy anisotropy experiments. Titrations were carried out with the concentrations eIF4E held constant at 200 nM, respectively and the labeled peptide at 50 nM. The competing molecules were then titrated against complex of the FAM labeled peptide and protein. Apparent Kd values were determined by fitting the experimental data to the equations shown below: […]
Six buffer blanks were first injected to equilibrate the instrument fully and then a solvent correction curve was performed followed by a further two blank injections. […] Using a flow rate of 50 μl/min, compounds were injected for 60 s and dissociation was monitored for 180 s. The data collection rate was 10 Hz. Kds were determined using the BiaEvaluation software (Biacore) and calculated kinetically from the dissociation and association phase data for each of the peptides. The kinetic data were fitted to 1:1 binding models. Each individual peptide Kd was determined from three separate titrations. Within each titration at least two concentration points were duplicated to ensure stability and robustness of the chip surface.

The chains behind the UniProt entries cited, without tags or fusion partners.
UniProt P06730, whole entry: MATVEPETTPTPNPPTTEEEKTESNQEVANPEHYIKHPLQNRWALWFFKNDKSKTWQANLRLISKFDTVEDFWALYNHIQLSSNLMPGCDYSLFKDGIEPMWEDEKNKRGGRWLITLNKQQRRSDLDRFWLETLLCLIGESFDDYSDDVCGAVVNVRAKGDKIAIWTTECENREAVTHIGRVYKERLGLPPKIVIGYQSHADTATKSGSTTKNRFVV

[1] = Circular dichroism, percent α-helicity in solution; format: physicochemical; settings: CD, 5 mM sodium phosphate buffer pH 7.0
Description: CD was measured on a JASCO J-810 spectropolarimeter, and spectra were either recorded with a quartz cuvette (Helmer) with a pathlength of 0.01 cm or 0.1 cm in 5 mM sodium phosphate buffer (pH 7.0). FUV CD spectra were recorded from 260 nm to 200 nm at a peptide concentration of either 2 mg/ml or 0.5 mg/ml, respectively. The CD signal was converted into mean residue ellipticity in units of degree·cm^2·dmol^−1·residue^−1. CD spectra were recorded at a data pitch of 0.2 nm at 50 nm min^−1, a response time of 2 s, and a bandwidth of […]. Once converted to mean residue ellipticity, percent α-helicity can be calculated with equation (1) and (2): […]

- Helicity (%) [1]: 0%
Structure (SMILES): CC(=O)N[C@@H](CCCCN)C(=O)N[C@@H](CCCCN)C(=O)N[C@@H](CCCNC(=N)N)C(=O)N[C@@H](Cc1ccc(O)cc1)C(=O)N[C@@H](CO)C(=O)N[C@@H](CCCNC(=N)N)C(=O)N[C@@H](CCC(=O)O)C(=O)NC(C)(C)C(=O)N[C@@H](CC(C)C)C(=O)N[C@@H](CC(C)C)C(=O)NC(C)(C)C(=O)N[C@@H](Cc1ccccc1)C(N)=O [TIP-03, KKRYSREXLLXF]
- helicity (circular dichroism): 0%
- affinity / binding to eIF4E (in words) (eIF4E): only slightly attenuates binding with eIF4E
